Assay results taken from PubChem BioAssay AID720553 (National Center for Advancing Translational Sciences (NCATS), 2013).
The entries are a selection whose mix differs from that of the whole data set. Calls of active or inactive are those of the source.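 The calls were made as follows: active = maximum activity change below -70%; inconclusive = maximum activity change from -70% to -50%; inactive = maximum activity change above -50%.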
% is scaled to controls: 0 for no effect and ±100 for the full control effect.

What follows are molecules tested on Potassium voltage-gated channel subfamily H member 2, brain isoform KCNH2 3.1 (human) (assay: qHTS for Inhibitors of KCHN2 3.1: Mutant qHTS). Settings: U2OS KCNH2 3.1, thallium flux FluxOr; stronger effect = lower value.
Description: Many antipsychotic drugs that inhibit the neurotransmitter dopamine also bind to hERG1 channel which might help explain their antipsychotic activity but also produces cardiac side effects. The discovery of the novel KCNH2 3.1 isoform offers a potential new target for the development of antipsychotic drugs without cardiac side effects. This proposal will use a high throughput thallium flux assay developed for KCNH2 to screen compounds that modulate the activity of KCNH2 3.1. The wild type KCNH2 channel will also be screened in parallel to help define the selective modulators of this KCNH2 3.1 potassium channel. The resulting compounds will be validated in electrophysiology experiments. The availability of animal models will allow future testing in vivo for effects on memory and other aspects of animal physiology linked with psychosis. NIH Chemical Genomics Center [NCGC] NIH Molecular Libraries Probe Centers Network [MLPCN] MLPCN Grant: MH096539 Assay Submitter (PI): James Barrow, Johns Hopkins University, Lieber Institute for Brain Development
U2OS cells were resuspended in cell media containing 10% fetal calf serum (FCS) at a concentration of 2 million cells / mL. The solution was treated with the mutant (3.1) virus at 1.77 x 10^8 / mL and allowed to incubate at room temperature in the dark. After 4 hours of incubation, DMEM + 10% fetal bovine serum (FBS) was added to the cell solution. Three microliter was then dispensed into a 1536 tissue culture treated black assay plates which were incubated overnight at 37 C. Two microliter of loading buffer (HBSS + HEPES + Red40 dye quencher + FluxOr dye) was added and the assay plates were incubated for 45 min at room temperature in the dark. Twenty-three nanoliter of test compounds and positive control Haloperidol (46 uM final concentration) were added to the assay plate followed by a kinetic read (180 sec) using the Hamamatsu FDSS reader. A stimulation buffer was added to the plate and the second kinetic read (2 min) was obtained. The rate constant was calculated from the kinetic reads and normalized to the positive and negative DMSO controls.
`CCNC(=O)N1CCN(CCCC(c2ccc(F)cc2)c2ccc(F)cc2)CC1` was tested, and the activity change was active: -118%. For `CN1CCCC1CCOC(C)(c1ccccc1)c1ccc(Cl)cc1` (configuration not stated), the activity change was active: -111%. With `O=C(CCCN1CCC(O)(c2ccc(Cl)cc2)CC1)c1ccc(F)cc1` the activity change was active: -99.9%. In the case of `O=C(CCCN1CCC(O)(c2cccc(C(F)(F)F)c2)CC1)c1ccc(F)cc1`, the activity change is reported as active: -111%. With `CN1CCC[C@@H]1CCO[C@](C)(c1ccccc1)c1ccc(Cl)cc1` the activity change was active: -96.4%. `CCOC(=O)C1=C[C@]2(CC)CCCN3CCc4c(n1c1ccccc41)[C@@H]32` was tested, and the activity change was active: -86.3%. For `CC(C)COCC(CN(Cc1ccccc1)c1ccccc1)N1CCCC1` (configuration not stated), the activity change was active: -103%.
